# Literature values as cited in patent US8445474B2 (Knopp Neurosciences, Inc., priority 2006, dated 2013).
# Test system: human subjects
# Conditions: Mirapex product insert; cited from earlier work
structure (smiles),measurement,value
CCCN[C@H]1CCc2nc(N)sc2C1 [S(−) pramipexole],maximally tolerated dose for humans,4.5 mg/day
